The source of these data is patent publication US9957288B2, “Pyrabactin analogues to modulate plant development” (Universiteit Gent, priority 2014, dated 2018).

Assay [1] concerns Arabidopsis thaliana Columbia (Col0) seedlings. The assay can be described thus: Primary root elongation of etiolated seedlings on compound medium. Conditions: 10 μM; for PR: primary root, compared with control not-treated seedlings. It counts as in vivo.
The test system is the same in assay [2]. The assay can be described thus: Lateral root initiation (lateral roots + lateral root primordia, number and density). It is filed as in vivo. The conditions noted are these: 13 d old etiolated seedlings, 10 μM.
The test system of assay [3] is Arabidopsis thaliana seeds. The assay is described as follows: Arabidopsis thaliana seed germination assay. The conditions noted are these: 10 μM, compared with control not-treated seeds. It is filed as in vivo.
The next assay has as its system tobacco epidermal strips. The assay is described as follows: Stomatal closure assay on epidermal strips. It is filed as cell-based, Nicotiana tabacum. The conditions noted are these: 10 μM; for Stomata: compared with control not-treated epidermal strips.
Assay [4] deals with Arabidopsis thaliana seedlings. The assay can be described thus: Seedling shoot development (shoot area, leaves). Conditions: 10 μM, compared with control not-treated seedlings.
The subject of assay [5] is etiolated Arabidopsis thaliana seedlings. The assay is described as follows: Adventitious root initiation in etiolated seedlings. The conditions noted are these: 10 μM; for AR: adventitious root, compared with control not-treated seedlings.

As for `CCOP(=O)(NCc1ccccn1)c1ccc(Br)cc1` (stereo not shown), in assay [1], the “effect on primary root growth” value is reported as “slight, but significant increase in primary root length” and the PR was 0. Further, in assay [2], the “effect on LR+ LRP density (per cm primary root)” value was “reduced the numbers of LR+ LRP similarly to ABA” and the “effect on number of LR+ LRP (lateral root initiation)” value was “modest to weak inhibitors of lateral root formation”. Further, in assay [3], the Seed germination turned out to be 0. In the assay with tobacco epidermal strips, the “effect on stomatal aperture” value is listed as “intermediate stomatal closure” and the Stomata result is on record as “++”. The compound also yielded a Shoot in assay [4] of 0. In addition, in assay [5], the “effect on adventitious root formation” value was “no effect” and the AR stood at 0.
For the compound `CCOP(=O)(NCc1ccccn1)c1ccccc1` (stereo not shown), in assay [1], the “effect on primary root growth” value is on record as “did not show a significant effect” and the PR was determined as 0. Besides, in assay [2], the “effect on LR+ LRP density (per cm primary root)” value was “reduced the numbers of LR+ LRP similarly to ABA” and the “effect on number of LR+ LRP (lateral root initiation)” value is “modest to weak inhibitors of lateral root formation”. Moreover, the Seed germination entry in assay [3] is recorded as “+”. In the assay on tobacco epidermal strips, the “effect on stomatal aperture” value is “did not affect the size of the stomatal aperture” and the Stomata entry is “+”. The Shoot in assay [4] worked out at 0. In assay [5], the AR amounted to 0.
